Results taken from patent publication US7585941B2 (priority 2004, dated 2009).

Chains of the proteins cited; added tags and fusions are not shown. Residues count along the entry.
UniProt P33535, 1-451 isoform P33535-6: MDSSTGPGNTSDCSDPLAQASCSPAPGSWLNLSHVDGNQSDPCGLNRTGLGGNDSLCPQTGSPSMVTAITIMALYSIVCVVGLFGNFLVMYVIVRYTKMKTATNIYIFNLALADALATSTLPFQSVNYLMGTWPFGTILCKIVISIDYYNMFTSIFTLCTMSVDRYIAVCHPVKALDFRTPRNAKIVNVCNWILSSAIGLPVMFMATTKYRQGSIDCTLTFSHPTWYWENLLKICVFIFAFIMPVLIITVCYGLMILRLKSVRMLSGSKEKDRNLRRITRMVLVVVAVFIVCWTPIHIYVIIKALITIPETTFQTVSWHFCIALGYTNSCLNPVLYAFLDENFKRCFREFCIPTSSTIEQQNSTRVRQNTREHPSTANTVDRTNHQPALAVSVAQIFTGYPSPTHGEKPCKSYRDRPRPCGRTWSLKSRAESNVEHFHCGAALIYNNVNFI
UniProt P33535, 1-390 isoform P33535-2: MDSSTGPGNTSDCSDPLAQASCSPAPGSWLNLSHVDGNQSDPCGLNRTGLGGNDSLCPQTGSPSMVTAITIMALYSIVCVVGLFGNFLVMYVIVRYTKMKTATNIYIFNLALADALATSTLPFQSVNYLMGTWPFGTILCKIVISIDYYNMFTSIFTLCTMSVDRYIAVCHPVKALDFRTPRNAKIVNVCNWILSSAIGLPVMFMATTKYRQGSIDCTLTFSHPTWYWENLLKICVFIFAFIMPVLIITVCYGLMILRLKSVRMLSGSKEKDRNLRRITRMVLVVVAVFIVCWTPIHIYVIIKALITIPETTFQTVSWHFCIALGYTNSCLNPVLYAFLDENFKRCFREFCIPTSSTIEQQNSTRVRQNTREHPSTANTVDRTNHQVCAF
UniProt P33535, 1-387 isoform P33535-8 I238V: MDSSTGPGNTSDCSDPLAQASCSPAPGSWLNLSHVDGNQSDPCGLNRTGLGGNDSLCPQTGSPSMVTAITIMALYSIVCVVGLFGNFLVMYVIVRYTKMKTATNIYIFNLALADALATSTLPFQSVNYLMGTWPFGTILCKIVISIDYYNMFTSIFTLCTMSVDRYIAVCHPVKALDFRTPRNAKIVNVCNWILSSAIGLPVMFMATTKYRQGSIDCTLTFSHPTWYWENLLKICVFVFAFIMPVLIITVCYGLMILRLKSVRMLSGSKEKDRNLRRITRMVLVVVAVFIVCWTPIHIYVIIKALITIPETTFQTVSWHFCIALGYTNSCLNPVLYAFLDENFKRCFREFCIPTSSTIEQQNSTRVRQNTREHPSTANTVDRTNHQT
UniProt P33535, 1-386 limits assumed, stated change not applied: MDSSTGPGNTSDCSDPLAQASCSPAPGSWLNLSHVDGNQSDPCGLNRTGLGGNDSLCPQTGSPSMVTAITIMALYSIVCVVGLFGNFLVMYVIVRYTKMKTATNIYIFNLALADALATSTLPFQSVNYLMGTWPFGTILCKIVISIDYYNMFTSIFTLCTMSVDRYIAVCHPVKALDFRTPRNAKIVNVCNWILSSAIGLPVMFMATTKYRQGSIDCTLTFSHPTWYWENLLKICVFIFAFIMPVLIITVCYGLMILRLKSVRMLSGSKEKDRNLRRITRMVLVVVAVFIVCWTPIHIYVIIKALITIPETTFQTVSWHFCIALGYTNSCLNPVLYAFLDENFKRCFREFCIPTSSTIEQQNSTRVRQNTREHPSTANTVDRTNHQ
UniProt P33535, whole entry: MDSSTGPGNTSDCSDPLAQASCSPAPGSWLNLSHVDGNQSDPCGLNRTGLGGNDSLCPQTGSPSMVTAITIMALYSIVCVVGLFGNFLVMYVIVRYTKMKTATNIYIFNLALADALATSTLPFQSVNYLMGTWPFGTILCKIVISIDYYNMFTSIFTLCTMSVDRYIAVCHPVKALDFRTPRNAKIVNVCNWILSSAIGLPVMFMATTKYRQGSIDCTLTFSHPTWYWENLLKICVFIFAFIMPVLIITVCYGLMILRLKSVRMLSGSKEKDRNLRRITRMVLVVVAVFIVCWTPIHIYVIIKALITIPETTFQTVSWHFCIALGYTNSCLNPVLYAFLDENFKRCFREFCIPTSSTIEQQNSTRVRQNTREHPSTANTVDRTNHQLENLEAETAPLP

What was measured:
Experiment in all cases: biochemical
rMOR-1C1 [1] = molecular target: T1, rMOR-1C1 (Rattus norvegicus, UniProt P33535)
rMOR-1C1 [2] = molecular target: T1, rMOR-1C1; assay type: binding
rMOR-1A [3] = molecular target: T2, rMOR-1A (Rattus norvegicus, UniProt P33535); settings: stimulation of [35S]GTPγS binding
rMOR-1D [4] = molecular target: T3, rMOR-1D (Rattus norvegicus, UniProt P33535); assay type: binding
rMOR-1 (no Exon 4) = rMOR-1 (no Exon 4) (Rattus norvegicus, UniProt P33535); settings: stimulation of [35S]GTPγS binding
rMOR-1A [5] = molecular target: T2, rMOR-1A; assay type: binding
rMOR-1D [6] = molecular target: T3, rMOR-1D
rMOR-1 [7] = molecular target: T4, rMOR-1 (Rattus norvegicus, UniProt P33535); assay type: binding
rMOR-1 [8] = molecular target: T4, rMOR-1; settings: stimulation of [35S]GTPγS binding
rMOR-1 (no E4) = molecular target: T5, rMOR-1 (no E4) (Rattus norvegicus, UniProt P33535); assay type: binding
T5 construct: rMOR-1 no E 4; expressed in transfected cells

Row | SMILES | EC50 (rMOR-1C1 [1]) [nM] | Ki (rMOR-1C1 [2]) [nM] | EC50 (rMOR-1A [3]) [nM] | Ki (rMOR-1D [4]) [nM] | EC50 (rMOR-1 (no Exon 4)) [nM] | Ki (rMOR-1A [5]) [nM] | EC50 (rMOR-1D [6]) [nM] | Ki (rMOR-1 [7]) [nM] | EC50 (rMOR-1 [8]) [nM] | Ki (rMOR-1 (no E4)) [nM] | Kd (rMOR-1C1 [2]) [nM] | Kd (rMOR-1D [4]) [nM] | Kd (rMOR-1A [5]) [nM] | Kd (rMOR-1 [7]) [nM] | Kd (rMOR-1 (no E4)) [nM]
1 | C[C@@H](NC(=O)[C@@H](N)Cc1ccc(O)cc1)C(=O)NCC(=O)N(C)[C@@H](Cc1ccccc1)C(=O)NCCO [DAMGO, [D-Ala^2,MePhe^4,Gly(ol)^5]enkephalin] | 4 | 4.5 ± 0.9 | 13 ± 5 | 4.7 ± 1.2 | 86 ± 16 | 6 ± 0.9 | 125 ± 26 | 3.3 ± 0.6 | 12 ± 3 | 2.4 ± 0.4 | – | – | – | – | –
2 | C[C@@H](NC(=O)[C@@H](N)Cc1ccc(O)cc1)C(=O)NCC(=O)N(C)[C@@H](Cc1ccccc1)C(=O)NCCO [[3H]DAMGO] | – | – | – | – | – | – | – | – | – | – | 4.8 ± 0.6 | 4.7 ± 1.2 | 2.5 ± 0.2 | 2.8 ± 0.79 | 4.5 ± 1.1
